Measurements from patent US10562897B2, “Substituted 3,4-dihydro-2H-pyrido[1,2-a]pyrazine-1,6-diones as gamma secretase modulators” (Janssen Pharmaceutica NV, priority 2014, dated 2020).

Key:
γ-secretase [1] = biological target: T1, γ-secretase (Homo sapiens, UniProt P49768); assay: Screening for γ-secretase-modulating activity: Aß42 in supernatant of SKNBE2 cells carrying hAPP 695 wild type (Alphalisa), IC50
γ-secretase [2] = biological target: T1, γ-secretase; assay: Screening for γ-secretase-modulating activity: Aßtotal in supernatant of SKNBE2 cells carrying hAPP 695 wild type (Alphalisa), IC50

IC50 (γ-secretase [1]; read-out: IC50 Aβ42, overnight incubation, cell supernatant, tested form: HCl) [nM] | IC50 (γ-secretase [2]; read-out: IC50 Aβtotal, overnight incubation, cell supernatant, tested form: HCl) [nM] | IC50 (γ-secretase [1]; read-out: IC50 Aβ42, overnight incubation, cell supernatant) [nM] | IC50 (γ-secretase [2]; read-out: IC50 Aβtotal, overnight incubation, cell supernatant) [nM] | SMILES
590 | > 10000 |  |  | Cc1cn(-c2ccc3n(c2=O)C[C@@H](C)N(Cc2cccc4c2OC(C)(C)C4)C3=O)cn1
 |  | 590 | > 10000 | Cc1cn(-c2ccc3n(c2=O)CCN(CC2(C)COc4ccc(Cl)cc42)C3=O)cn1 (stereo not shown)
